Results on 1 compound are retold here after patent publication US7687664B2, “Carboxylic acid derivative, a salt thereof or an ester of them, and medicament comprising it” (Eisai R&D Management Co., Ltd., priority 2001, dated 2010).

Amino acid sequences for entries named in this document (tags omitted). A change or cut given only in a name is not applied to a line headed by its entry. Residues count along the entry.
UniProt Q07869, 167-468 limits assumed: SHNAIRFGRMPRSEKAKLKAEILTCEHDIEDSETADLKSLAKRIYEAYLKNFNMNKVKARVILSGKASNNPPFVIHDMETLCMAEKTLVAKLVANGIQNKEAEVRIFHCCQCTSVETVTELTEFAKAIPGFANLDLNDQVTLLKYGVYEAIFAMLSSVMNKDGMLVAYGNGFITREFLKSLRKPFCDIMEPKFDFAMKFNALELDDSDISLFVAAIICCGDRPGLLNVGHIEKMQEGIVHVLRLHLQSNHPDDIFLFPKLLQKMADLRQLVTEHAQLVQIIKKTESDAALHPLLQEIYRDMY
UniProt Q03181, 138-440 limits assumed: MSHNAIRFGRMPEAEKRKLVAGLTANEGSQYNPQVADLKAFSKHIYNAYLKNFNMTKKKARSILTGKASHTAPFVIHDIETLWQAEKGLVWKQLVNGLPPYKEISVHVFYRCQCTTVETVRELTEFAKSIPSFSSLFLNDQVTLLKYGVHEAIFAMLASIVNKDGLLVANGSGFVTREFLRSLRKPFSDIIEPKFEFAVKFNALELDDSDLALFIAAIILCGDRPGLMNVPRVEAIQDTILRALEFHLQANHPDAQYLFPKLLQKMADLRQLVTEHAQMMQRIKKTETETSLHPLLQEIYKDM
UniProt P37231, 202-503 limits assumed: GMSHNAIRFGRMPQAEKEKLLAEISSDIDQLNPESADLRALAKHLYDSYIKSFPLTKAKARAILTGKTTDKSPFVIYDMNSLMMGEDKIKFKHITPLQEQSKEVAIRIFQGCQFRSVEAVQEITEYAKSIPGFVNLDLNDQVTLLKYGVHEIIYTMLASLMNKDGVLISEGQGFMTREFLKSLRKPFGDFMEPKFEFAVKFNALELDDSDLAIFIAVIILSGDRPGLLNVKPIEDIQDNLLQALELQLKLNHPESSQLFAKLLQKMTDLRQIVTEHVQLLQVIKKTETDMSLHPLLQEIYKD

Holding throughout (test): Transcriptional activity, GAL4-PPAR LBD chimera / PLAP reporter in CV-1 cells
The target in assay [1] is human PPAR α (Homo sapiens, UniProt Q07869). Particulars: read-out: Transcriptional activity, EC50 PPAR α, GAL4-PPARα LBD, PLAP activity 24 hours after addition. An excerpt: (§1) A GAL4-PPAR LBD chimera expression vector was constructed by ligating human PPAR 167-468 (PPAR α), 138-440 (NUC-1) and 174-475 (PPARγ) amino acid regions (LBD: Ligand Binding Domain) to a yeast transcriptional factor GAL4 1-147 amino acid region. As the reporter gene, PLAP (Placental Alkaline Phosphatase) was used, and this was ligated downstream of a TK promoter containing a 5-copy GAL4 DNA binding element to construct a vector. As host cells, CV-1 (ATCC CCL-70) was used. That is, CV-1 cells were spread at a density of 5×10^5 cells on a 35-mm dish and cultured in 10% FCS/DMEM for 24 hours, and using FuGENE 6 transfection reagent, the cells were co-transfected with the GAL4-PPAR LBD expression vector and GAL4 DBD-TK-PLAP expression vector. 24 hours after this transfection, the cells were spread again on a 96-well plate at a density of 1×10^4/well and further cultured for 24 hours. After 24 hours, the medium was exchanged with DMEM containing 10% FCS, which was previously treated at 65° C. for inactivating intrinsic alkaline phosphatase, and a test compound was added at an arbitrary concentration. The transcriptional activity was determined in terms of PLAP activity secreted 24 hours after addition of the compound, to calculate EC50.
(§2) The PLAP activity was determined after adding 50 μl assay buffer and 50 μl chemoluminescence substrate to 10 μl culture supernatant and incubating the mixture at room temperature for 1 hour. In this way, transcription activities with respect to PPARα, PPARβ(δ) and PPARγ could be determined.

Assay [2] addresses human PPAR β (NUC-1, PPARβ(δ)) (Homo sapiens, UniProt Q03181). Particulars: read-out: Transcriptional activity, EC50 PPAR β, GAL4-PPARβ(δ) (NUC-1) LBD, PLAP activity 24 hours after addition.
Excerpt: as §1, §2

Assay [3] deals with human PPAR γ (Homo sapiens, UniProt P37231). The settings on record: read-out: Transcriptional activity, EC50 PPAR γ, GAL4-PPARγ LBD, PLAP activity 24 hours after addition.
Excerpt: as §1, §2

Each structure is given as a SMILES string. A value given as a limit tells only on which side of the number the result lay.

`COc1ccc(-c2cccc(C(=O)O)c2)cc1CNC(=O)c1sc(-c2ccc(Cl)cc2)nc1C`: the values for the EC50 in assay [1], in assay [2] and in assay [3] were < 0.0001 µM, 0.176 µM and 0.711 µM, respectively.

In general, EC50 refers to the concentration giving half of the maximal effect.
